Here are results for one molecule from patent US6906042B2, “Micelles” (Eisai Co., Ltd., priority 2000, dated 2005).

Series [1] is described as follows: Micelle hydrodynamic diameter of E5564 through NaOH dissolution, lactose phosphate buffer, freeze-drying and re-hydration.
Series [2] in a line: E5564 micelle hydrodynamic diameter before and after simulated I.V. infusion using administration equipment (DLS).

Where two headings read alike, the source gives them in different places.

On to `CCCCCC/C=C\CCCCCCCCCC(=O)N[C@H]1[C@H](OC[C@H]2O[C@H](OP(=O)(O)O)[C@H](NC(=O)CC(=O)CCCCCCCCCCC)[C@@H](OCCCCCCCCCC)[C@@H]2O)OC(COC)[C@@H](OP(=O)(O)O)[C@@H]1OCC[C@@H](CCCCCCC)OC` (stereo partly shown) [Compound E5564], for which the “micelle hydrodynamic diameter change with added NaCl” value is, setting by setting: (24 hours after addition of 0.01 M NaCl) “unchanged”; (after 24 hours with addition of 0.03 M NaCl or greater) “Changes in micelle hydrodynamic diameter were observed”; (immediately after addition of up to 0.07 M NaCl) “no immediately appreciable change”. Besides, the micelle hydrodynamic diameter in series [1] (aqueous sodium hydroxide solution, pH 10.1) is reported as 7 nm; in series [1] (freeze-dried product re-hydrated with water) it was 7 nm; in series [1] (lactose containing phosphate buffer solution, pH 7-8), 7 nm. The “Mean Micelle Hydrodynamic Diameter (nm) by DLS” value in series [2] (0.14 mg/mL - 5.0 mL/hr - 30 minutes) was 8.7 nm; in series [2] (0.14 mg/mL - control) it was 7.7 nm; in series [2] (0.5 mg/mL - 1.4 mL/hr - 30 minutes) it was 7.5 nm; in series [2] (0.5 mg/mL - control), 7.5 nm.
